Data from publication PMC8258697 (The Journal of Biological Chemistry, 2021).

By UniProt entry, the sequences of proteins in these tests, tags left out. Residues count along the entry.
UniProt P37231, 234-505: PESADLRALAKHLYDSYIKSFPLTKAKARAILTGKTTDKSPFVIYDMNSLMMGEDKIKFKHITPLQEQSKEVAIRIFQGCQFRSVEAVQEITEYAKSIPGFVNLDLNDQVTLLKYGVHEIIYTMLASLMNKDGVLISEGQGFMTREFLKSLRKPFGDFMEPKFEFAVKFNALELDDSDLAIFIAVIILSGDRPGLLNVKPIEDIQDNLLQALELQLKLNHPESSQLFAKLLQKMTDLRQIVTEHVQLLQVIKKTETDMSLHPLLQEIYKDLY

Legend:
[1] = molecular target: T1, PPARγ LBD in complex with RXRα LBD (Homo sapiens, UniProt P37231); assay: Heterodimer coactivator recruitment HTRF assay: CBP-1 recruitment by PPARγ LBD in complex with sGFP-RXRα LBD total mutant; type: biochemical; settings: 100 nM PPARγ LBD, 2 μM sGFP-RXRα total mutant, read-out: Dimer recruitment, agonist mode, Potency (EC50)
T1 construct: His10-tag with TEV site (N, cleaved yes); made in house; host or cells: E. coli T7 express (co-expressed with GroEL/ES)

[2] = molecular target: PPARγ LBD (Homo sapiens, UniProt P37231); assay: Monomer cofactor recruitment HTRF assay: CBP-1 recruitment by isolated sGFP-PPARγ LBD; type: biochemical; parameters: His10-tag with TEV site (N, cleaved yes); made in house; host or cells: E. coli T7 express (co-expressed with GroEL/ES); settings: 100 nM sGFP-PPARγ LBD, read-out: Monomer recruitment, agonist mode, Potency (EC50)

In the case of GW1929, the EC50 [1] is reported as 87 ± 7 nM and the EC50 [2] is reported as 44 ± 3 nM.
